Test results from ChEMBL document CHEMBL5375988, “AcGlcAs: A Novel P53-Targeting Arsenical with Potent Cellular Uptake and Cancer Cell Selectivity” (J Med Chem, 2023).

Test system: NB-4
Assay: Antiproliferative activity against human NB4 cells expressing PML/RARalpha assessed as cell growth inhibition measured after 48 hrs by CCK-8 assay

SMILES: Cl[As](Cl)Cl
- IC50: 1.75 µM
